The chains behind the UniProt entries cited, without tags or fusion partners. Where a name states a change or a piece, a line headed by the entry shows the natural chain unless it says otherwise.
UniProt P42338: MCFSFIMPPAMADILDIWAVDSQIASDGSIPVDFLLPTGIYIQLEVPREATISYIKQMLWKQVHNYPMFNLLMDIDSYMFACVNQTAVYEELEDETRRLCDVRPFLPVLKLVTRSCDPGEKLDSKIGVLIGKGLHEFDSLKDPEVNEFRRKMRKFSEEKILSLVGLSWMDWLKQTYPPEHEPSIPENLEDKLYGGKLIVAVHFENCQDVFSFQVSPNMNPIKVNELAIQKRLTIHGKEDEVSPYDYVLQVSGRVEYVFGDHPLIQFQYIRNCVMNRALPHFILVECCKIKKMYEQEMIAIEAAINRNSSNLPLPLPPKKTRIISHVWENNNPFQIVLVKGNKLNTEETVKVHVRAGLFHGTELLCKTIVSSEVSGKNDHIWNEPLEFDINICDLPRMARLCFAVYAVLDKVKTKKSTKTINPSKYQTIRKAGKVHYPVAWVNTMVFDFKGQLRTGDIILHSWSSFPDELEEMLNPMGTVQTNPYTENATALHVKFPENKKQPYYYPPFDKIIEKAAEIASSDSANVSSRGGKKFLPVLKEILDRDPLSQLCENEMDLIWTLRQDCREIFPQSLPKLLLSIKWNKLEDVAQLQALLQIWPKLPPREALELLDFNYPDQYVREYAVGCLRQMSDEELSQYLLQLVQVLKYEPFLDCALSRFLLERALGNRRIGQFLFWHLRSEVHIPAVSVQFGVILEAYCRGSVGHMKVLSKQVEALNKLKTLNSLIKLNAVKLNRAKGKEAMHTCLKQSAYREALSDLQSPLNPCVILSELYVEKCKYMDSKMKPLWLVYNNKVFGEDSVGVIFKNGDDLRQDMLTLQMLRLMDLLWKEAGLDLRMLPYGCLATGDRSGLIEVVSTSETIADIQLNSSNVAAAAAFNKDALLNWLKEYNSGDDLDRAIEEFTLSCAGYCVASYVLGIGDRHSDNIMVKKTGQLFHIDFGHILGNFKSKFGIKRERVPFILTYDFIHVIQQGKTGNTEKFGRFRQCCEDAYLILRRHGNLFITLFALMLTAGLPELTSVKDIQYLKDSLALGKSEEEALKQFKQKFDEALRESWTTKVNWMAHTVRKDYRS

According to PMC10748079, “Discovery of Potent Indolyl-Hydrazones as Kinase Inhibitors for Breast Cancer: Synthesis, X-ray Single-Crystal Analysis, and In Vitro and In Vivo Anti-Cancer Activity Evaluation” (Pharmaceuticals, 2023):

Molecular target: T1, PI3K-β (Homo sapiens, UniProt P42338)
T1 construct: purchased Bioscience, USA #79802
Experiment: Kinase inhibitory assay (ELISA kit)
Format: biochemical
Settings: average of three independent replicates; read-out: IC50 ± SD PI3K-β
Experimental: EGFR (catalog #40321), CDK2 (catalog #79599), AKT (catalog #78038), PI3K-α (catalog #40639), β (catalog #79802), and δ (catalog #40628) kinase inhibitions were conducted using an ELISA kit in accordance with the manufacturer instructions from Bioscience, USA. To assess the inhibitory potency of compound 5 against the kinase activity, kinase inhibitory tests were carried out. The following calculation was used to compute the proportion that chemicals inhibited autophosphorylation: […]. Using the GraphPad prism7 program, the IC50 was calculated using the curves of percentage inhibition of five concentrations of each chemical.

## O=c1cc(N2CCOCC2)oc2c(-c3ccccc3)cccc12 [LY294002, reference compound]
  IC50: 440 ± 20 nM
